For this assay, the target named is Aldo-keto reductase family 1 member B1 (Rattus norvegicus, UniProt P07943). The assay can be described thus: Tested for in vitro inhibition activity against rat Aldose reductase (AR).

`O=C1NC(=O)[C@@]2(CCOc3ccc(F)cc32)N1` [SORBINIL] displayed an IC50 of 0.9 µM.

The record behind these values is ChEMBL document CHEMBL1133756, “A potent aldose reductase inhibitor, (2S,4S)-6-fluoro-2', 5'-dioxospiro[chroman-4,4'-imidazolidine]-2-carboxamide (Fidarestat): its absolute configuration and interactions with the aldose reductase by X-ray crystallography” (J Med Chem, 2000).
